# Ab-14 light chain CDR variants: yeast mating affinities

Antigen: PDVDLGDISGINAS, a 14-residue peptide of the SARS-CoV-2 spike HR2 region.

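Phage display of a naive human antibody library on the peptide gave the parent. In library AAYL50, one, two or three CDR residues were substituted; doubles and triples were drawn at random. AlphaSeq pools MATa yeast showing the antibodies with MATalpha yeast showing the peptide. Pairs that bind mate more often; barcode pairs of the diploids are counted by sequencing. The ratio of observed to expected reads was calibrated, replicate by replicate, on BCL2-family standards whose Kd was known from biolayer interferometry. The assay was run in three technical replicates.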

Each scFv is VH, three GGGGS repeats, VL, as in the parent Ab-14, and differs from it in the CDRs of the light chain only.
VH: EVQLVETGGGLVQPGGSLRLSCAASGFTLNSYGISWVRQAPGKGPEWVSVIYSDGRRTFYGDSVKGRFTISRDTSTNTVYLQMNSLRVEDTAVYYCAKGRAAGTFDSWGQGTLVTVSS
VL: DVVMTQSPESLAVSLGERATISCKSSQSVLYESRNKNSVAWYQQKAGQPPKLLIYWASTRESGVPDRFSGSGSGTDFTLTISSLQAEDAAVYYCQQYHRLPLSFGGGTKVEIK

Changes read parent residue, position, new residue, counted from the first residue of the VL shown. Kd is apparent (estimated from mating counts) and averaged on the log scale over replicates with a signal. Smaller is tighter. A pair that was not seen in any replicate is written "nd"; this usually means weak binding, but a binder can also be missed. Order: sorted from the lowest average up, undetected variants last. For reference, the parent read 4.4 nM as the reference entry and 48 nM as a member of this library. Empty control strains, which show no peptide, gave a signal in 18% of pairings with library AAYL50; the median was 15 µM and 95% of these signals were weaker than 970 nM. No background was subtracted.

Read-out 3.2 nM (3 of 3 replicates), from Q27K/R34Q/K36S.
Read-out 6.3 nM (3 of 3 replicates), from L30M/K36E/E61M.
Read-out 7.0 nM (3 of 3 replicates), from S28E/H98K/R99I.
Read-out 8.8 nM (3 of 3 replicates), from S33G/T59M/H98Y.
Read-out 11 nM (3 of 3 replicates), from Y31P/H98A/L102H.
Read-out 18 nM (3 of 3 replicates), from S33P/N35D/K36W.
Read-out 21 nM (3 of 3 replicates), from K24H/H98S/L100I.
Read-out 59 nM (1 of 3 replicates), from V29M/N37L/L100S.
Read-out 72 nM (3 of 3 replicates), from K24Q/S26R/L30V.
Read-out 78 nM (3 of 3 replicates), from N35V/W56R/S62T.
Read-out 210 nM (3 of 3 replicates), from Y31H/N35V/E61C.
Read-out 220 nM (3 of 3 replicates), from S26Q/S33C/S62A.
Read-out 250 nM (3 of 3 replicates), from S28W/N37H.
Read-out 470 nM (3 of 3 replicates), from V29R/N35A/S58H.
Read-out 950 nM (3 of 3 replicates), from S58Q/R99A.
Read-out 1.0 µM (3 of 3 replicates), from S26C/Q27S/E61G.
Read-out 1.5 µM (3 of 3 replicates), from S28T/S38H/R99V.
Read-out 1.6 µM (3 of 3 replicates), from Y31K/N35H/S103C.
Read-out 2.1 µM (1 of 3 replicates), from V29L/L30F/R99P.
Read-out 2.6 µM (1 of 3 replicates), from E61A/S62W/Q96P.
Read-out 2.7 µM (1 of 3 replicates), from N37L/S58V/R60C.
Read-out 3.1 µM (3 of 3 replicates), from T59V/Q95K.
Read-out 3.6 µM (3 of 3 replicates), from A57D/Q95D.
Read-out 7.8 µM (1 of 3 replicates), from S33V/R60D/S62H.
Read-out 8.3 µM (2 of 3 replicates), from L30D/S62E/L100H.
Read-out 8.6 µM (1 of 3 replicates), from L30G/R60S/L102I.
Read-out 27 µM (3 of 3 replicates), from S26D/S58W/R60T.
Read-out 28 µM (1 of 3 replicates), from E32G/A40T/S62C.
Read-out 66 µM (2 of 3 replicates), from L30W/Q96M/Y97D.
Read-out 77 µM (2 of 3 replicates), from W56P/H98V.
Read-out 300 µM (1 of 3 replicates), from S25R/V39Q/S103K.
Read-out 390 µM (1 of 3 replicates), from S38N/V39P/Q95V.
Read-out nd (0 of 3 replicates), from S26A/Y97T/L100K.
Read-out nd (0 of 3 replicates), from S28H/A40Y/S58N.
Read-out nd (0 of 3 replicates), from V29Y/A40T/A57Y.
Read-out nd (0 of 3 replicates), from S33G/S38V/H98S.
Read-out nd (0 of 3 replicates), from K24L/E32A/A40S.
Read-out nd (0 of 3 replicates), from Q27W/N35Y/V39G.
Read-out nd (0 of 3 replicates), from L30N/R60E/Q96F.
Read-out nd (0 of 3 replicates), from L30D/N37C/W56L.
Read-out nd (0 of 3 replicates), from N35V/N37E/A57I.
Read-out nd (0 of 3 replicates), from N35E/Q96S/P101W.
Read-out nd (0 of 3 replicates), from S38C/Y97P.
Read-out nd (0 of 3 replicates), from Y31F/S38H/E61A.
Read-out nd (0 of 3 replicates), from S25I/S58C/S62L.
Read-out nd (0 of 3 replicates), from Y31Q/R60N/Q95V.
Read-out nd (0 of 3 replicates), from E32H/L102K.

Source: Engelhart et al. 2022 (doi:10.1038/s41597-022-01779-4), MIT Lincoln Laboratory and A-Alpha Bio; data file from the FLAb repository.